The text below walks through data of US6001882A (priority 1997, dated 1999).

In series [1] the test system is PBMC obtained from a subject having CTCL. Put plainly: Induction of apoptosis in CTCL PBMC, TUNEL assay (Example 3). The class given is cell-based, human. The following applies: UV-A light.
The conditions of series [2]: following oral administration; cited from earlier work.

Consider `Cc1cc(O)c2c(=O)c3c(O)cc(O)c4c5c(O)cc(O)c6c(=O)c7c(O)cc(C)c8c1c2c(c34)c(c78)c65` [hypericin, 1,3,4,6,8,13-Hexahydroxy-10,11,dimethyl-phenanthro[1,10,9,8,-opqra]perylene-7,14-dione], for which, in series [1], the “selectivity of apoptosis induction, malignant vs normal leukocytes” value is recorded as “significantly greater than its capacity to induce apoptosis of normal leukocytes”. For the same molecule, in series [2], the oral bioavailability entry is “about 20%”.
